Measurements as given in article PMC5499624 (Biomolecules & Therapeutics, 2017).

Key:
[1] = test system: [^3H]imperatorin uptake by TR-BBB cells; assay: Inhibition of [^3H]imperatorin uptake by TR-BBB cells by selected compounds; assay type: in vitro ADME, rat; settings: compound 1 mM (L-Carnitine: concentration cell empty), 37°C, 5 min
[2] = test system: [^3H]imperatorin brain uptake; assay: Brain uptake index; assay type: in vivo, rat; settings: inhibitor 10 mM, 15 s after injection

Row | Structure (SMILES) | Relative Uptake (% of Control) of [^3H]imperatorin [1] | BUI of [^3H]imperatorin in presence of inhibitor [2] [%]
1 | C[C@]12CC[C@@H]3c4ccc(OS(=O)(=O)O)cc4CC[C@H]3[C@@H]1CCC2=O [E1S, estrone-3-sulfate] | 103 ± 6 % of Control | 
2 | COc1ccc(CN(CCN(C)C)c2ccccn2)cc1 [Pyrilamine, pyrilamine maleate salt] |  | 29.1 ± 1.7

Structures can show the parent of a compound that is named as a salt.
